Test results taken from US20210315238A1.

T1: 26-mer peptide
T1 chain: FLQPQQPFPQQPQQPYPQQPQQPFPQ

T2: 33-mer peptide
T2 chain: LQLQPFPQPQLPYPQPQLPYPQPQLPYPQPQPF


Assays:
[1] = molecular target: T1, 26-mer peptide
[2] = molecular target: T2, 33-mer peptide

| Protein | Residual 26-mer peptide (mg/mL) after 0.5 ppm protease, 10 min 40 C, HPLC [1] [mg/mL] | Residual 26-mer peptide (mg/mL) after 1 ppm protease, 10 min 40 C, HPLC [1] [mg/mL] | Residual 26-mer peptide (mg/mL) after 2 ppm protease, 10 min 40 C, HPLC [1] [mg/mL] | Residual 33-mer peptide (mg/mL) after 0.5 ppm protease, 10 min 40 C, HPLC [2] [mg/mL] | Residual 33-mer peptide (mg/mL) after 1 ppm protease, 10 min 40 C, HPLC [2] [mg/mL] | Residual 33-mer peptide (mg/mL) after 2 ppm protease, 10 min 40 C, HPLC [2] [mg/mL] |
| --- | --- | --- | --- | --- | --- | --- |
| CpoPro1 (protein) FGPRWARYQNDLHLAAMLGMDADSVLTNRSSLASAIDSLAETSAVVAEYANIPIDHRNPGRMYRNRYWVNDQYYQPGGPVVIFDTGETNGQAFADYYLVDPTSYIVQLLREFHGVGLVWEHRYYGESLPYPVNGQTSAAQFQYLTLEQALQDLPYFARTFRRPRLPNADLTPRSTPWIMVGGSYPGMRAAFSRLKYPDTIFAAFSSSAPAQARIDMSVYYEQVYRGLVAYGYGNCTRDVNAAYRYIDAQLANPSTAAQIKRQFLGPGAEQNSNGDFTAVLLYNWATWQSFGANGPAGQFCNWLETDQYGRVAPAEGWAPSRGARSVVDRWAAWPGLSRAINSIFETNCNCPEETCSCDLSAPPADPLAISWSWQFCSQFGYFQYQNPRPHEIASRYQTEAYIQDNCYRQFPDGVSSGHLPRRPRADATNNYTGGWNMRPSNVFHGAGQYDPWTPLTVLSQEPWGPRRRVTTQIPACNQEQEAVFGVLLPNAEHVYDLQTSYQPGEVSRQLFRRALHQWLPCFRRRNSTADHD | 0.07 | 0.01 | 0 | 0.18 | 0.02 | 0 |
| MorPro1 (protein) VRVGNLLEPPMPPPFAIEDIEDIDPKQLTKRKISSGFFDQYIDHSNPSLGTFRQKFWWSDEFYKGPGSPVILFNPGESRADIYTGYLTNLTVPGMYAQAVGAAVVMLEHRYWGESSPFANLSTKNMQYLTLNNSISDTTRFARQVKLPFDTSGATNAPNAPWVFVGGSYPGALAGWVESVAPGTFWAYHASSAVVQDIGDYWRYFSPINEGMPKNCSADIGRVVEHIDKVLGTGSDSDKSALQTAFGLGSLEHDDFVETLANGPYLWQGIDFSTGYSDFFKFCDYVENVPPKAATRVPPGVDGVGLEKALTGYQDWIKKEYLPTACDSLGYPKGDLGCLSSHNFSAPFYRDQTVLNPGNRQWFWFLCNEPFKFWQNGAPKGEPSIVSRIIGSKYFESQCALWFPDEPREGGGVYTYGIAEGKDVASVNKFTGGWDHTDTKRLLWVNGQFDPWLHATVSSPSRPGGPLQSTDKAPVLVIPGGVHCTDLIIRNGDANEGARKVQSQAREIIKKWVSEFPKSGKSP | 0.24 | 0.07 |  | 0.44 | 0.26 | 0.12 |
